This note sets out measurements from PMC3385512 (Science Translational Medicine, 2012).

This assay has as its system KIT-overexpressing H3122 cells. The note with it: crizotinib 1 μM, 7 days.

Read-outs that look alike come from different tables or passages of the source.

Take `C[C@@H](Oc1cc(-c2cnn(C3CCNCC3)c2)cnc1N)c1c(Cl)ccc(F)c1Cl` [crizotinib]: the “sensitivity, cell viability” value is “highly sensitive” (absence of exogenously added SCF) and “highly resistant” (presence of SCF (100 ng/ml)).
